# Experimental data reported in patent US20140017673A1, “METHOD FOR ENUMERATING EUKARYOTIC CELL MICRONUCLEI WITH AN EMPHASIS ON SIMULTANEOUSLY ACQUIRING CYTOTOXICITY AND MODE OF ACTION INFORMATION” (priority 2012, published 2014).
# Like-named read-outs stand apart in the source and are kept apart here.
# System: TK6 cells
# Details: 24 to 27 hrs
compound,measurement,setting,value
CN(N=O)C(=N)N[N+](=O)[O-],Avg. % EMA+,0.003125 μg/ml,4.3%
same,Avg. % M,0.003125 μg/ml,1.0%
same,Avg. % MN,0.003125 μg/ml,2.0%
same,Avg. % RS,0.003125 μg/ml,78.3%
same,Avg. M as % G2/M,0.003125 μg/ml,1.9%
same,Avg. % EMA+,0.00625 μg/ml,5.9%
same,Avg. % M,0.00625 μg/ml,0.6%
same,Avg. % MN,0.00625 μg/ml,4.4%
same,Avg. % RS,0.00625 μg/ml,69.7%
same,Avg. M as % G2/M,0.00625 μg/ml,1.1%
same,Avg. % EMA+,0.0125 μg/ml,7.3%
same,Avg. % M,0.0125 μg/ml,0.4%
same,Avg. % MN,0.0125 μg/ml,8.9%
same,Avg. % RS,0.0125 μg/ml,59.1%
same,Avg. M as % G2/M,0.0125 μg/ml,0.9%
same,Avg. % EMA+,0.05 μg/ml,11.0%
same,Avg. % M,0.05 μg/ml,0.4%
same,Avg. % MN,0.05 μg/ml,9.1%
same,Avg. % RS,0.05 μg/ml,44.1%
same,Avg. M as % G2/M,0.05 μg/ml,1.1%
same,Avg. % EMA+,[…],10.3%
same,Avg. % M,[…],0.4%
same,Avg. % MN,[…],8.3%
same,Avg. % RS,[…],48.6%
same,Avg. M as % G2/M,[…],0.9%
